Data reported in patent publication US20050202403A1.

Amino acid sequences for entries named in this document (tags omitted). A change or cut given only in a name is not applied to a line headed by its entry.
UniProt P41146: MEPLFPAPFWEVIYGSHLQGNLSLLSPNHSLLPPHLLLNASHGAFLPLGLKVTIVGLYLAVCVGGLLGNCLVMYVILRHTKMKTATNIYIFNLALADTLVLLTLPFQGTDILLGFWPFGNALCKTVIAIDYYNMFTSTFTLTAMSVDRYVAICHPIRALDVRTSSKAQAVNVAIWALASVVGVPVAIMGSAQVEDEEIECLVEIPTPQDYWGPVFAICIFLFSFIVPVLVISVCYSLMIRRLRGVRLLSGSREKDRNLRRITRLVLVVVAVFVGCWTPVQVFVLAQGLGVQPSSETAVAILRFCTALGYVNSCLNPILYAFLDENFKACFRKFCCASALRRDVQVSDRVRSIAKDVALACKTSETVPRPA
UniProt Q13519: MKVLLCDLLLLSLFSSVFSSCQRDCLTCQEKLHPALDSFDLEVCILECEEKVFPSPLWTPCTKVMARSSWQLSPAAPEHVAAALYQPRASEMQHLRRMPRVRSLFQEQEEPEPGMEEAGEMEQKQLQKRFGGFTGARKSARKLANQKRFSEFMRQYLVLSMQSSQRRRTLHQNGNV

Target: human nociceptin receptor expressed as a fusion to the α-factor leader (human) (UniProt P41146)
Experiment: cell-based or functional assay

Work on “nociceptin (from UniProt Q13519 130-146) (peptide)” yielded a β-galactosidase expression, strain CY2120 with Gpal of 10 fold.
